# Reference: publication PMC9974843 (2023)
# Test system: C57BL/6J mice
# Details: 10 mg/kg, i.p., 1 h before the 4 h session, vs saline
smiles,measurement,setting,value
"CO[C@H](C)[C@H](N)CN(C(=O)[C@@H]1C[C@H]1c1ccc(F)cn1)c1ccc(-c2ccc(OC(C)C)cc2)cc1.Cl [Compound 30a, (1R,2R)-N-[(2R,3R)-2-Amino-3-methoxybutyl]-2-(5-fluoropyridin-2-yl)-N-[4′-(propan-2-yloxy)-[1,1′-biphenyl]-4-yl]cyclopropane-1-carboxamide Dihydrochloride]",alcohol intake in the DID procedure,,attenuated alcohol drinking
same,alcohol intake in the DID procedure,listed as RTI-122,significantly attenuates

# Read-outs that look alike come from different tables or passages of the source.
